Measurements taken from ChEMBL document CHEMBL1138069, “Synthesis and SAR of 1,3-disubstituted cyclohexylmethyl urea and amide derivatives as non-peptidic motilin receptor antagonists” (Bioorg Med Chem Lett, 2006).

By UniProt entry, the sequences of proteins in these tests, tags left out.
UniProt A5A4K8, whole entry: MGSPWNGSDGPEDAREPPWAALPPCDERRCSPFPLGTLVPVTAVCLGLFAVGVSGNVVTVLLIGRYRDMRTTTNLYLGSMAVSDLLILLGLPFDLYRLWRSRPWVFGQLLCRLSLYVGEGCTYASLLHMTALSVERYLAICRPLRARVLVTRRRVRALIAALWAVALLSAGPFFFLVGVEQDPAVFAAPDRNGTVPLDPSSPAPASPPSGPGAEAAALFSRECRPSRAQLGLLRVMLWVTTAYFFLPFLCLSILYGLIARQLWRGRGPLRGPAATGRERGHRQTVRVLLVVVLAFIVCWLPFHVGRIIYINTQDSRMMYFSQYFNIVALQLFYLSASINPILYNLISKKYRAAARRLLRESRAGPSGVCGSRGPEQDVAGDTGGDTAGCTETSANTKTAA

How the values were obtained:
[1] = target: T1, Motilin receptor (Oryctolagus cuniculus, UniProt A5A4K8); experiment: Inhibition of [125]I-motilin binding to rabbit motilin receptor
Procedure, shortened: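 Rabbit colon membranes, homogenized in Tris–HCl pH 7.5 and centrifuged, with the pellet stored frozen. Binding was run in HEPES pH 7.0 with 15 mg/mL BSA, protease inhibitors and 125I-porcine motilin (50,000–70,000 cpm; 2000 Ci/mmol) for 60 min at 30 °C. Bound tracer was separated by centrifugation. Nonspecific binding was taken with unlabeled porcine motilin. IC50 values are means of at least two separate determinations.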

[2] = target: T1, Motilin receptor; experiment: Activity at rabbit duodenum motilin receptor by tissue contractility assay; format: functional

Row | IC50 [1] [µM] | IC50 [2] [µM] | Compound
1 | 0.01 | 0.008 | CC(C)(C)C(=O)N(Cc1ccccc1)[C@@H]1CCC[C@H](CN(C(=O)c2ccc(F)cc2)c2cccc(OCCN3CCCC3)c2)C1
2 | 0.072 | 0.638 | CC(C)(C)C(=O)N(Cc1ccccc1)[C@H]1CCC[C@@H](CN(C(=O)c2ccc(F)cc2)c2cccc(OCCN3CCCC3)c2)C1
3 |  | 0.024 | CC(C)(C)C(=O)N(Cc1ccccc1)C1CCCC(CN(C(=O)c2ccc(F)cc2)c2cccc(OCCN3CCCC3)c2)C1 (racemic)
